# Only a part is listed here, and it is no random draw. Activity calls are given as the source filed them. No stated cut-off is given here; in the data, active means inhibition above about 30%; inactive means the rest.
# By UniProt entry, the sequences of proteins in these tests, tags left out.
# UniProt Q5T2D3, whole entry, looked up: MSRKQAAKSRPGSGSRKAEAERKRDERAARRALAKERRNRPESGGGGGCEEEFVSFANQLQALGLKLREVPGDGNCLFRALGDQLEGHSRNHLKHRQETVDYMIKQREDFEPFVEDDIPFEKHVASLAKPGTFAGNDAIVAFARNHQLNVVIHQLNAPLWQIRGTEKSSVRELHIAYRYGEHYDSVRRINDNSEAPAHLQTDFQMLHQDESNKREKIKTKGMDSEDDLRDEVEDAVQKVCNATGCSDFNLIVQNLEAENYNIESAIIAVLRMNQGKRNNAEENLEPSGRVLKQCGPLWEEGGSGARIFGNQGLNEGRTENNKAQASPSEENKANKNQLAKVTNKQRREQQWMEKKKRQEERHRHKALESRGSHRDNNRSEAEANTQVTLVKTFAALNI
# Biological target: OTU domain-containing protein 3 (Homo sapiens) (UniProt Q5T2D3)
# Assay: inhibitors of human OTUD3 deubiquitinase (AID 1645858)
# Conditions: purified OTUD3, Ub-rhodamine fluorescence, 2 h; at 25 µM; hits give high values
row,Compound,inhibition
1,Cc1[nH]c2c(N(C(=O)Nc3ccccc3)C3CCN(Cc4ccccc4)CC3)cccc2c1C,inactive: -5.85%
2,N#Cc1cccc(C(=O)N(Cc2ccco2)C2CCN(CCc3ccc(Cl)cc3)CC2)c1,inactive: -21.7%
3,O=C(c1ccc2c(c1)OCO2)N(Cc1ccco1)C1CCN(CCc2ccccn2)CC1,inactive: -17.4%
4,O=C(COC(=O)C(O)(c1ccccc1)c1ccccc1)NCc1ccc2c(c1)OCO2,inactive: -10.4%
5,COc1ccc(CCN2CCC(N(Cc3cccnc3)C(=O)c3cccc(C#N)c3)CC2)cc1,inactive: -18.4%
6,CS(=O)(=O)c1ccc(C(=O)N(Cc2ccco2)C2CCN(CCc3ccccn3)CC2)cc1,inactive: -18.6%
7,N#Cc1cccc(C(=O)N(Cc2cccnc2)C2CCN(CCc3ccccn3)CC2)c1,inactive: -16.2%
8,COc1ccc(CCN2CCC(N(Cc3ccco3)C(=O)c3ccc(S(C)(=O)=O)cc3)CC2)cc1,inactive: -23.6%
9,CN1C(=O)C2C(NC(=NCc3ccco3)N2CCc2ccccc2)N(C)C1=O (stereo unspecified),inactive: -9.45%
10,N#Cc1cccc(C(=O)N(Cc2ccco2)C2CCN(CCc3ccccn3)CC2)c1,inactive: 11.5%
11,CS(=O)(=O)c1ccc(C(=O)N(Cc2cccnc2)C2CCN(CCc3ccc(Cl)cc3)CC2)cc1,inactive: -53.6%
